# Source: PubChem BioAssay AID602399 (Sanford-Burnham Center for Chemical Genomics, 2012)
# This is a selection; strong and weak results do not stand in their true shares. Active and inactive are the calls of the source. No stated cut-off is given here; in the data, active means inhibition above about 26%; inactive means the rest.
# Test system: Nicotinate-nucleotide adenylyltransferase NadD (Staphylococcus aureus N315)
# Assay: S. aureus NadD enzyme activity blockers – biochemical, colorimetric, uHTS, primary screen (AID 602399)
# Conditions: purified NadD enzyme, colorimetric absorbance read-out; at 20 µM; stronger effect = higher value
row,SMILES,inhibition
1,CCC(=O)N(c1ccccc1)C1(COC)CCN(CCn2nnn(CC)c2=O)CC1,inactive: 1.62%
2,CCC(=O)N(c1ccccc1)C1(COC)CCN(CCc2cccs2)CC1,inactive: -6.85%
